Assay: Solubility of dosing solutions in 5% dextrose in water
Assay type: physicochemical
Conditions: 5% dextrose in water (D5W)

Substance: [camptothecin-rvD-Asp-Suc-Tyr^1, Nle^17, 4Hyp^34]hNPY(1-36)-NH2 [Example 92]
- solubility of dosing solution: poor solubility
